Results on two molecules are retold here after PubChem BioAssay AID1259397 (Fisher Drug Discovery Resource Center, 2018).

Amino acid sequences for entries named in this document (tags omitted).
UniProt Q8C6L5, whole entry: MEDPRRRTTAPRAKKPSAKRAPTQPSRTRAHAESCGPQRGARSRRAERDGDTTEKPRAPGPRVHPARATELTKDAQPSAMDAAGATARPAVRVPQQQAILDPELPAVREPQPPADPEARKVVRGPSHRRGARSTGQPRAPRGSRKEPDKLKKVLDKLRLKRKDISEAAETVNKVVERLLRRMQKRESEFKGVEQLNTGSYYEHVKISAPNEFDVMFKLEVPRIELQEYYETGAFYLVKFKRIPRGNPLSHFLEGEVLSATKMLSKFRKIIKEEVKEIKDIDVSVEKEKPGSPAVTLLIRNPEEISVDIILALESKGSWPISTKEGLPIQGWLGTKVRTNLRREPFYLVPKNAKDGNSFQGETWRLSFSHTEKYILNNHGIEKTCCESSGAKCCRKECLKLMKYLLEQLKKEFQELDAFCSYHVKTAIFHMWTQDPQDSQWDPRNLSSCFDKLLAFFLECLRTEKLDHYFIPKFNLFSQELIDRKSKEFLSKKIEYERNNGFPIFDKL

The entries are a selection whose mix differs from that of the whole data set. Some results for these compounds are left out of this collection, so the calls shown say nothing about other tests. Calls of active or inactive are those of the source.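 The calls were made as follows: active = inhibition of cGAS enzyme activity at or above 60%; inactive = the rest.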

A word on the inhibition: it is the relative decrease from the control value, in per cent.

The target of this test is Cyclic GMP-AMP synthase (Mus musculus) (UniProt Q8C6L5). In words: inhibitors of Mus musculus cyclic GMP-AMP synthase, initial high-throughput assay, cell-free, RapidFire MS (AID 1259397).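 Also: enzyme stimulated by 45 bp dsDNA with ATP and GTP substrates; cGAMP share of summed cGAMP plus half ATP and half GTP signals.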 The settings on record: recombinant mouse cGAS, cGAMP by RapidFire MS; at 12.5 µM; hits give high values.
As to `CN(C)C1(CNC(=O)c2cc(Br)c(Br)s2)CCCCC1`, the inhibition was inactive: -6.54%.

Regarding `N#CC(C#N)=Cc1ccc(Br)cc1`, the inhibition is inactive: 30.8%.
